Source: ChEMBL document CHEMBL5506018, “Discovery and Mechanistic Studies of Dual-Target Hits for Carbonic Anhydrase IX and VEGFR-2 as Potential Agents for Solid Tumors: X-ray, In Vitro, In Vivo, and In Silico Investigations of Coumarin-Based Thiazoles” (J Med Chem, 2024)

By UniProt entry, the sequences of proteins in these tests, tags left out. Where a name states a change or a piece, a line headed by the entry shows the natural chain unless it says otherwise.
UniProt P09619, whole entry: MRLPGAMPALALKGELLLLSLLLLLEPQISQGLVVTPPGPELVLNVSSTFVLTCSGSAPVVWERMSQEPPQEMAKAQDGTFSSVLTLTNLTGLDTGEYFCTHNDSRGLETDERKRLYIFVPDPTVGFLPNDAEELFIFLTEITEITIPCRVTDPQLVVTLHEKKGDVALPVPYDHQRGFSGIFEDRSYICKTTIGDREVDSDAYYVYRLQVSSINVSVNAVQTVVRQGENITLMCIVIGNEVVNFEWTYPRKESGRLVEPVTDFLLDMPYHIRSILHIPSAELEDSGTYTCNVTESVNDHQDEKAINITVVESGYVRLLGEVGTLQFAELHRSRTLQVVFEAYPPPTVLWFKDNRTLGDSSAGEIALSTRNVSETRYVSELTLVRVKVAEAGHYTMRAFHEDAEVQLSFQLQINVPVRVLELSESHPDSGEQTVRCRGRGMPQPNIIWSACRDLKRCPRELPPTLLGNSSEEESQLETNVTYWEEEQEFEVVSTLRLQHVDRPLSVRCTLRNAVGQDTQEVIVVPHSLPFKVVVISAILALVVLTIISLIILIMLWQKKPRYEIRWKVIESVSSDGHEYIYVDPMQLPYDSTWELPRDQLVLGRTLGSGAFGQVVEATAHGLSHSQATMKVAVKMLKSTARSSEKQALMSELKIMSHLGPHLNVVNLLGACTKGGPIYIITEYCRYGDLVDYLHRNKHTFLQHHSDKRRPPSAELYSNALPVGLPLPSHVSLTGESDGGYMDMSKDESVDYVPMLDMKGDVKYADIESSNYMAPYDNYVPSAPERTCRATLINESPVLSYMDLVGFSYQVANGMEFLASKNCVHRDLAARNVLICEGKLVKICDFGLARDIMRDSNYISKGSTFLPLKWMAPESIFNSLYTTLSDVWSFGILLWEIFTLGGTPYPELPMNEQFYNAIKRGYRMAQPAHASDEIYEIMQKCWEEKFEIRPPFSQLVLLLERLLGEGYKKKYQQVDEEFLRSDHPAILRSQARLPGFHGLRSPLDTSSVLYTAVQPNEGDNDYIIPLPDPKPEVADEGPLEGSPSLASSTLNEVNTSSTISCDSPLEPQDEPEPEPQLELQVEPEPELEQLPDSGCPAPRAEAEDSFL
UniProt P10721, whole entry: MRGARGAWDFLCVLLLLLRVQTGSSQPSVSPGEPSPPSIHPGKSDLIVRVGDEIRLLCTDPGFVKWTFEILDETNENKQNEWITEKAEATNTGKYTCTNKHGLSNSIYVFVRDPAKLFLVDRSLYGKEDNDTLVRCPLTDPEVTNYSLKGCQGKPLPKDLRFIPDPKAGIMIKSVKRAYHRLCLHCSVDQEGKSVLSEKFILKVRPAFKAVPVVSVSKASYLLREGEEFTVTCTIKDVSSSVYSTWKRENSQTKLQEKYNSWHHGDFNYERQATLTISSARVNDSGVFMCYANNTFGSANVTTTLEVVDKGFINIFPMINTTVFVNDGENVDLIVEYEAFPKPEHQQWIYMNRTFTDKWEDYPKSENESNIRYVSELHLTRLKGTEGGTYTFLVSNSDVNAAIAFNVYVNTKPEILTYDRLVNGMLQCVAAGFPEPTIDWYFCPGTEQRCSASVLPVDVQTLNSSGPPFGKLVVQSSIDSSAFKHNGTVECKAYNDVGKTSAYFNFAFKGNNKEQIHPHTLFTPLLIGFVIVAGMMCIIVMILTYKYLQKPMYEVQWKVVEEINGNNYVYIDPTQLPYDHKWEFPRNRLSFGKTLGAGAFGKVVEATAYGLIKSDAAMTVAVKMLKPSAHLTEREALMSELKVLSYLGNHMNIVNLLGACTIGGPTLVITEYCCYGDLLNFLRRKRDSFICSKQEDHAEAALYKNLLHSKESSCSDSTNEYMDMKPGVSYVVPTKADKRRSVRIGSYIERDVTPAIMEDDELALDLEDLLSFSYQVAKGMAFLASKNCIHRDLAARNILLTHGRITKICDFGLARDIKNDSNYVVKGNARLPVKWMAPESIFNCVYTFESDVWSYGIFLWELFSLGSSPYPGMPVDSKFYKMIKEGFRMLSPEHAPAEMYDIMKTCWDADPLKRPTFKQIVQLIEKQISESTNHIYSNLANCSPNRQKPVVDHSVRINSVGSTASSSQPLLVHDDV
UniProt P49841: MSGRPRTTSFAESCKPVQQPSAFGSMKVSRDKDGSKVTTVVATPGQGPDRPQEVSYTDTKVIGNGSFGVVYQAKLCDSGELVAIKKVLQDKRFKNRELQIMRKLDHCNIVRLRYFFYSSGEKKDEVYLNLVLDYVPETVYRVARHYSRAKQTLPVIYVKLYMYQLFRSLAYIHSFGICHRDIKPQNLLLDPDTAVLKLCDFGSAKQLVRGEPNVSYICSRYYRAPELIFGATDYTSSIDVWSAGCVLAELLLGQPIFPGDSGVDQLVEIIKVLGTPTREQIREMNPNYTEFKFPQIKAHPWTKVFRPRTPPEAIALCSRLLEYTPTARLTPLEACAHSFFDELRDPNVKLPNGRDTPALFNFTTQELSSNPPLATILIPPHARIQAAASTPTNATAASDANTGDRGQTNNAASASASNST
UniProt Q07820, whole entry: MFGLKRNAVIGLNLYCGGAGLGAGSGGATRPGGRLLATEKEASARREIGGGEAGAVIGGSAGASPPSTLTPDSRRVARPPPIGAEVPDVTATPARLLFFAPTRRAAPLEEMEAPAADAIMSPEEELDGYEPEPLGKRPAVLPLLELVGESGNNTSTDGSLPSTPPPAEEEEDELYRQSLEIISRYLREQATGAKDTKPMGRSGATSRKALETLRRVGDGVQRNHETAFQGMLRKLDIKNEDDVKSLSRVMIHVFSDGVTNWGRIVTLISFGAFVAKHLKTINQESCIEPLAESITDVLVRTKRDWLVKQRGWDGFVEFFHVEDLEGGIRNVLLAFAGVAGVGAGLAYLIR
UniProt P07949, whole entry: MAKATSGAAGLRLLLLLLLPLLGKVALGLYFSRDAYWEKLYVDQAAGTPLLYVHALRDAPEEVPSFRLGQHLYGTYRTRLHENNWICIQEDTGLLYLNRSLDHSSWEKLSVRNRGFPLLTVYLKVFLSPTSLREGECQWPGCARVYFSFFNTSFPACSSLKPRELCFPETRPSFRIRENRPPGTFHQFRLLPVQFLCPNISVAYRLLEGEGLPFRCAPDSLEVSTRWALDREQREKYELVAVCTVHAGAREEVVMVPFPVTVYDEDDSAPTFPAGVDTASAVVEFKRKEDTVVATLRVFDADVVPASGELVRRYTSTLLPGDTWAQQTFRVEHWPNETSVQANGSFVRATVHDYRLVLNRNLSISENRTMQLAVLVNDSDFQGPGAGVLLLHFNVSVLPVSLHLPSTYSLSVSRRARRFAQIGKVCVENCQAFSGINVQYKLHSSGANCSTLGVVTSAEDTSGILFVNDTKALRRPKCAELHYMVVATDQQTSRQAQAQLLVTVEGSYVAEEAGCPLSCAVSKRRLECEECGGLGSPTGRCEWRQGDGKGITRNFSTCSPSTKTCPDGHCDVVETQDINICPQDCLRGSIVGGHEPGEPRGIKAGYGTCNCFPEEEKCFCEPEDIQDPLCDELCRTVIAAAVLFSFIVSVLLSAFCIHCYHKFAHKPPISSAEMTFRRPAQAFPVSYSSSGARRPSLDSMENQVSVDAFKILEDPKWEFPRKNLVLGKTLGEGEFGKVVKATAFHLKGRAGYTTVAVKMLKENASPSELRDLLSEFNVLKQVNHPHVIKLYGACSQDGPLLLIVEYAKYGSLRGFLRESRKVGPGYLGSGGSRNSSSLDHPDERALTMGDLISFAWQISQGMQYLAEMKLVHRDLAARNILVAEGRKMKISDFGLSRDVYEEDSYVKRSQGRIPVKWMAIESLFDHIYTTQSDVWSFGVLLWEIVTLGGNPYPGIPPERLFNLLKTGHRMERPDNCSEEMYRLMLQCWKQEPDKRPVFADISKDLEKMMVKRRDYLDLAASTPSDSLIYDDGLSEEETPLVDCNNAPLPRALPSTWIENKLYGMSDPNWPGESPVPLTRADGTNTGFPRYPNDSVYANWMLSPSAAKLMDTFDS
UniProt Q06187: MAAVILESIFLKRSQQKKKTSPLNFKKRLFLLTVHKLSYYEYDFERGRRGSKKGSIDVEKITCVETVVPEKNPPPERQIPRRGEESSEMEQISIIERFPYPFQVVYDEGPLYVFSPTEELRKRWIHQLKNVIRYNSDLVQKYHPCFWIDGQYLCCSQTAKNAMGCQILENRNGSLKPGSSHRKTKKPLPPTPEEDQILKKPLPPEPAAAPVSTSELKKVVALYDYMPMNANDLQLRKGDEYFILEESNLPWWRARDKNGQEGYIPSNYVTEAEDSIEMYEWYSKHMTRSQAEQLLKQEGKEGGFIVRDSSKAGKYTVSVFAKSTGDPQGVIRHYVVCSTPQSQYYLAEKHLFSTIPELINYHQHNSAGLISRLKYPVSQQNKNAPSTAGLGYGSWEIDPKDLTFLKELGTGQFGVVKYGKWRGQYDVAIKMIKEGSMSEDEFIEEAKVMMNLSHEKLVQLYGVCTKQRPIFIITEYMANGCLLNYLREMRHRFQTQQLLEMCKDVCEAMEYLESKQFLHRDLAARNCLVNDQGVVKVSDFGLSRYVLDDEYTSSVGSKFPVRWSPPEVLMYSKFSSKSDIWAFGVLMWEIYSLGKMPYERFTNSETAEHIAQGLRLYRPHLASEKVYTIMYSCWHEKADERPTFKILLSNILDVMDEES
UniProt Q96GD4, whole entry: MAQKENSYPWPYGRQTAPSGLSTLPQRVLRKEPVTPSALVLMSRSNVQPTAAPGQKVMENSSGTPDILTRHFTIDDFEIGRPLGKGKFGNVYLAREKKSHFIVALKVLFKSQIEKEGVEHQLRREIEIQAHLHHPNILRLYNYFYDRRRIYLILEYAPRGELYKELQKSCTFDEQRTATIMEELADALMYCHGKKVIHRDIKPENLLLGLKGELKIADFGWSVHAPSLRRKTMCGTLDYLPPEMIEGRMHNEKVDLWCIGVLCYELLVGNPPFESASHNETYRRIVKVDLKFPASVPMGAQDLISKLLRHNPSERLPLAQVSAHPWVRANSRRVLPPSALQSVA
UniProt P36888, whole entry: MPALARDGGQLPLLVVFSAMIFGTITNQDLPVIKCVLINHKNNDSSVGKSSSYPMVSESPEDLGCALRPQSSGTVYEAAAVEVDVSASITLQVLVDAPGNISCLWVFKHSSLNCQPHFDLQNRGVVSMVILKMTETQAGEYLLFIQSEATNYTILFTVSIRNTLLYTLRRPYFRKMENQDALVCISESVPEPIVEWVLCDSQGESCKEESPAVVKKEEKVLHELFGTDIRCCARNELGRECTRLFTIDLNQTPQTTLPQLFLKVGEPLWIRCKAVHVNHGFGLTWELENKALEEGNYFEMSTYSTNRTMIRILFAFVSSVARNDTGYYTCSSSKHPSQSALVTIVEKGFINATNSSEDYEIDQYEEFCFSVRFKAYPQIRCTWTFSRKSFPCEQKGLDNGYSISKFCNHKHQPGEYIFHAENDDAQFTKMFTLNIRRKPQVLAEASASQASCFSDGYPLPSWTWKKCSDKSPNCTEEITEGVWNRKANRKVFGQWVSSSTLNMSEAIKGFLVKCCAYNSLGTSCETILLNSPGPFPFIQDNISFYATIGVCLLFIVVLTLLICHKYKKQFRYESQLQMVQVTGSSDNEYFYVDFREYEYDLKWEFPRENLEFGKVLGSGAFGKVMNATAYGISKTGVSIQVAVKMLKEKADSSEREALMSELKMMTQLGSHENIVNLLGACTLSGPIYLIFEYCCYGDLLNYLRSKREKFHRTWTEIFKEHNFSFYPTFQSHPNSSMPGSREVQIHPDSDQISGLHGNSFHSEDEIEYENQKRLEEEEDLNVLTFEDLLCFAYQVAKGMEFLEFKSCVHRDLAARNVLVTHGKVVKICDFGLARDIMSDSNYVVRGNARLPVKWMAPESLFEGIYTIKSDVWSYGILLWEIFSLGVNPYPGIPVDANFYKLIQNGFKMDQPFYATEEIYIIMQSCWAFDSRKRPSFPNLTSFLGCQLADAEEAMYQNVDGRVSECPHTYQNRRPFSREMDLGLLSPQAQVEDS

Columns and labels:
[1] = biological target: Platelet-derived growth factor receptor beta (Homo sapiens) (UniProt P09619); assay: Inhibition of PDGFRbeta (unknown origin) assessed as remaining activity at 10 uM relative to control
[2] = biological target: Mast/stem cell growth factor receptor Kit (Homo sapiens) (UniProt P10721); assay: Inhibition of c-KIT (unknown origin) assessed as remaining activity at 10 uM relative to control
[3] = biological target: Glycogen synthase kinase-3 beta (Homo sapiens) (UniProt P49841); assay: Inhibition of GSK3beta (unknown origin) assessed as remaining activity at 10 uM relative to control
[4] = biological target: Induced myeloid leukemia cell differentiation protein Mcl-1 (Homo sapiens) (UniProt Q07820); assay: Inhibition of Mcl-1 (unknown origin) assessed as remaining activity at 10 uM relative to control
[5] = biological target: Proto-oncogene tyrosine-protein kinase receptor Ret (Homo sapiens) (UniProt P07949); assay: Inhibition of RET (unknown origin) assessed as remaining activity at 10 uM relative to control
[6] = biological target: Tyrosine-protein kinase BTK (Homo sapiens) (UniProt Q06187); assay: Inhibition of BTK (unknown origin) assessed as remaining activity at 10 uM relative to control
[7] = biological target: Aurora kinase B (Homo sapiens) (UniProt Q96GD4); assay: Inhibition of Aurora B (unknown origin) assessed as remaining activity at 10 uM relative to control
[8] = biological target: RAF proto-oncogene serine/threonine-protein kinase (Homo sapiens) (UniProt P04049); assay: Inhibition of RAF (unknown origin) assessed as remaining activity at 10 uM relative to control
[9] = biological target: T1, Tyrosine-protein kinase JAK3 (Homo sapiens) (UniProt P52333); assay: Inhibition of JAK3 (unknown origin) assessed as remaining activity at 10 uM relative to control
T1 sequence (whole entry): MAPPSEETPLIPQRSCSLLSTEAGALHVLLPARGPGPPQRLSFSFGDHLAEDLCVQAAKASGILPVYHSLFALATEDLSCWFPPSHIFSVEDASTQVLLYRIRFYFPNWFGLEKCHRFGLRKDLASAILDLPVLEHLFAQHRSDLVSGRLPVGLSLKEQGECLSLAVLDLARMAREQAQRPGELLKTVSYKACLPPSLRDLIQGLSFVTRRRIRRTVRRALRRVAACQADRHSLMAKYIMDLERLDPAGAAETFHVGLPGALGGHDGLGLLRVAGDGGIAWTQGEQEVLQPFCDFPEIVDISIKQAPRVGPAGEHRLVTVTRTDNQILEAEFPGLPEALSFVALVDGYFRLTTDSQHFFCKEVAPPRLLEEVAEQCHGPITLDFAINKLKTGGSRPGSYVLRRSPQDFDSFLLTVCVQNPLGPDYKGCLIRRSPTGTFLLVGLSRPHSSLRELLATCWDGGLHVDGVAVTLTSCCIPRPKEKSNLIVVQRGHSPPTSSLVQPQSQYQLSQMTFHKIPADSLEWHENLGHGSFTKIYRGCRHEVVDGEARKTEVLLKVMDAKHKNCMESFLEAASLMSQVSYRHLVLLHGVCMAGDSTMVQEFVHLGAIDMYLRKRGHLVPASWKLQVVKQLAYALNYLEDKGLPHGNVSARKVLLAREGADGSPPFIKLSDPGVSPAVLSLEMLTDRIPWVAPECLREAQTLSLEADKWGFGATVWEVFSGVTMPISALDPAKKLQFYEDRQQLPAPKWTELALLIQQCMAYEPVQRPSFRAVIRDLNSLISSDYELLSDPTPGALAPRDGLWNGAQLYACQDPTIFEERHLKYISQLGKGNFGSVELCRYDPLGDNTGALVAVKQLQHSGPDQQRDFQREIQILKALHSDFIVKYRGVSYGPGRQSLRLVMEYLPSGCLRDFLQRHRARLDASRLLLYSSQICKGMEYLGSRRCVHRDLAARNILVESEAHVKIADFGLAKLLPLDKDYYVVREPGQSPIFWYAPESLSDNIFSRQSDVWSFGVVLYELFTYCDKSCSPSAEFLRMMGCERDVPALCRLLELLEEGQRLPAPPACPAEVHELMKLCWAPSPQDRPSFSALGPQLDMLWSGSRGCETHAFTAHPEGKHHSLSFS

[10] = biological target: Receptor-type tyrosine-protein kinase FLT3 (Homo sapiens) (UniProt P36888); assay: Inhibition of FLT-3 (unknown origin) assessed as remaining activity at 10 uM relative to control

Compound: CCOc1cccc2cc(/C(C)=N/Nc3nc(-c4ccc(F)cc4)cs3)c(=O)oc12
- Activity [1]: 84%
- Activity [2]: 95%
- Activity [3]: 93%
- Activity [4]: 85%
- Activity [5]: 97%
- Activity [6]: 87%
- Activity [7]: 102%
- Activity [8]: 76%
- Activity [9]: 99%
- Activity [10]: 100%
